Paper PMC9726709, “Fluorescently tagged nanobodies and NanoBRET to study ligand-binding and agonist-induced conformational changes of full-length EGFR expressed in living cells” (Frontiers in Immunology, 2022)

Biological target: N-terminal NanoLuc-tagged EGFR (NLuc-EGFR) (human) (UniProt P00533)
Experiment: FRET or BRET; NanoBRET saturation binding on living HEK293 cells stably expressing NLuc-EGFR; fluorescent EGF 0-100 nM, with or without 100 nM unlabelled EGF (non-specific binding); 30 min at 37 °C; HBSS with 0.2% BSA, pH 7.45

Kd: 3.49 nM
Substance: Epidermal Growth Factor fluorescently labelled with Alexa Fluor 647 (ligand)
